Columns and labels:
[1] = in vivo calciuric activity, calcium levels in rat urine; details: relative activity (A = 1)
[2] = system: murine keratinocytes; assay: antiproliferative activity in murine keratinocytes (standard in vitro protocol); assay type: cell-based
[3] = system: human CYP24; details: HPK1a-ras cells, 8 hours, relative to calcitriol = 100

Structure (SMILES)	Calciuria Activity Compared to 1 [1]	antiproliferative activity relative to 1a [2]	times more antiproliferative than the natural hormone A [2]	Relative Fold Induction of CYP24 by 100 nM of Compound [3] [%]
C=C1/C(=C\C=C2/CCC[C@]3(C)[C@@H]([C@H](C)COCC#CC(C)(C)C)CC[C@@H]23)C[C@@H](O)C[C@@H]1O [Analog 1f]	<0.02	approximately ten times more antiproliferative than 1a	approximately 40 times	–
C=C1/C(=C\C=C2/CCC[C@]3(C)[C@@H]([C@H](C)COCC(=C)C(C)(C)C)CC[C@@H]23)C[C@@H](O)C[C@@H]1O [Analog 1a]	<0.02	–	–	–
C=C1/C(=C\C=C2/CCC[C@]3(C)[C@@H]([C@H](C)COCC4=CCCCC4(C)C)CC[C@@H]23)C[C@@H](O)C[C@@H]1O [Analog 1d]	–	–	–	73.8
C=C1/C(=C\C=C2/CCC[C@]3(C)[C@@H]([C@H](C)COCC(=C)C4(C)CCCCC4)CC[C@@H]23)C[C@@H](O)C[C@@H]1O [Analog 1c]	<0.02	–	–	–
C=C1/C(=C\C=C2/CCC[C@]3(C)[C@@H]([C@H](C)COCc4ccccc4)CC[C@@H]23)C[C@@H](O)C[C@@H]1O [Analog 1h]	<0.02	–	–	–

Source: patent US9481646B2, “Low calcemic, highly antiproliferative, analogs of calcitriol” (The Johns Hopkins University, priority 2007, dated 2016)
